From PMC3806475, “Marine Derived Hamacanthins as Lead for the Development of Novel PDGFRβ Protein Kinase Inhibitors” (Marine Drugs, 2013)

Amino acid sequences for entries named in this document (tags omitted). A change or cut given only in a name is not applied to a line headed by its entry. Residues count along the entry.
UniProt P31749: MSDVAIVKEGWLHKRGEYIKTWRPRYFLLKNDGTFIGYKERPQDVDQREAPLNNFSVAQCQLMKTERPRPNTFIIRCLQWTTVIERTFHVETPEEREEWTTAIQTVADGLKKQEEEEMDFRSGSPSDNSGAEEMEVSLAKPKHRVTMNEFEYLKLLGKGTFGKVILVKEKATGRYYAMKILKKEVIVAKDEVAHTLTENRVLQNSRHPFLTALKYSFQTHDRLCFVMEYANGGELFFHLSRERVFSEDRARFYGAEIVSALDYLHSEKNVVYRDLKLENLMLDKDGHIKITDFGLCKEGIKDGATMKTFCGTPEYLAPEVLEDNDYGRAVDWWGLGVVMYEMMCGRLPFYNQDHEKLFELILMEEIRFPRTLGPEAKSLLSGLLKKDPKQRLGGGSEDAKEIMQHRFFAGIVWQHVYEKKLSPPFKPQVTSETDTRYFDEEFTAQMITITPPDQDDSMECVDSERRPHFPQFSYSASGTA
UniProt Q02763, 23-1124: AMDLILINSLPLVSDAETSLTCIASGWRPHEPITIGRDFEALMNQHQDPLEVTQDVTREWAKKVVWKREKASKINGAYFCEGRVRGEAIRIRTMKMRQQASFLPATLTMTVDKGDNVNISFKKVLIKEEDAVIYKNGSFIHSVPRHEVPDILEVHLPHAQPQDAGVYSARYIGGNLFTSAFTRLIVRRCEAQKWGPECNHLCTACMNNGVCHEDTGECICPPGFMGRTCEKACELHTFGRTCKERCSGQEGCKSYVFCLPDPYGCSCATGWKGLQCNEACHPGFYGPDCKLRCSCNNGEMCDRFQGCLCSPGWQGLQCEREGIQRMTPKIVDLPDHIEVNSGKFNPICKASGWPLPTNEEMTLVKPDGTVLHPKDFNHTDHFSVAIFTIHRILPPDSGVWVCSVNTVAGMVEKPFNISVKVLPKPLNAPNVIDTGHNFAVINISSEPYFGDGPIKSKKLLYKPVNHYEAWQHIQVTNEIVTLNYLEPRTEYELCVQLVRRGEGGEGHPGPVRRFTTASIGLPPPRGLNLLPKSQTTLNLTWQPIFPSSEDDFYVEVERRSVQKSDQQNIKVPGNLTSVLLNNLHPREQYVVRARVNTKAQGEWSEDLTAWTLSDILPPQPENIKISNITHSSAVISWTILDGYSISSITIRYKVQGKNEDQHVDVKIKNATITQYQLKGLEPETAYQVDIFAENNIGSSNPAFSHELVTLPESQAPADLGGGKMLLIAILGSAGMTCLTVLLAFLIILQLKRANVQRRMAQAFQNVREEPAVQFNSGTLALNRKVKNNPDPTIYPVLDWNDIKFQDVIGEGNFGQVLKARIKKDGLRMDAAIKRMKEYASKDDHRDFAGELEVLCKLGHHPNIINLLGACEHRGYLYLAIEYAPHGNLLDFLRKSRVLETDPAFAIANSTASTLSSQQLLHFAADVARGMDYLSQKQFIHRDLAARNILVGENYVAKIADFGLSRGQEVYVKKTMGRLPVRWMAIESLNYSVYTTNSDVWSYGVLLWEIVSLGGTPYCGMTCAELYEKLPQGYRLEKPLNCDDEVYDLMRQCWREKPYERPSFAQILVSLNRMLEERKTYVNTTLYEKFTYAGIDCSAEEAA
UniProt P08069, 31-1367: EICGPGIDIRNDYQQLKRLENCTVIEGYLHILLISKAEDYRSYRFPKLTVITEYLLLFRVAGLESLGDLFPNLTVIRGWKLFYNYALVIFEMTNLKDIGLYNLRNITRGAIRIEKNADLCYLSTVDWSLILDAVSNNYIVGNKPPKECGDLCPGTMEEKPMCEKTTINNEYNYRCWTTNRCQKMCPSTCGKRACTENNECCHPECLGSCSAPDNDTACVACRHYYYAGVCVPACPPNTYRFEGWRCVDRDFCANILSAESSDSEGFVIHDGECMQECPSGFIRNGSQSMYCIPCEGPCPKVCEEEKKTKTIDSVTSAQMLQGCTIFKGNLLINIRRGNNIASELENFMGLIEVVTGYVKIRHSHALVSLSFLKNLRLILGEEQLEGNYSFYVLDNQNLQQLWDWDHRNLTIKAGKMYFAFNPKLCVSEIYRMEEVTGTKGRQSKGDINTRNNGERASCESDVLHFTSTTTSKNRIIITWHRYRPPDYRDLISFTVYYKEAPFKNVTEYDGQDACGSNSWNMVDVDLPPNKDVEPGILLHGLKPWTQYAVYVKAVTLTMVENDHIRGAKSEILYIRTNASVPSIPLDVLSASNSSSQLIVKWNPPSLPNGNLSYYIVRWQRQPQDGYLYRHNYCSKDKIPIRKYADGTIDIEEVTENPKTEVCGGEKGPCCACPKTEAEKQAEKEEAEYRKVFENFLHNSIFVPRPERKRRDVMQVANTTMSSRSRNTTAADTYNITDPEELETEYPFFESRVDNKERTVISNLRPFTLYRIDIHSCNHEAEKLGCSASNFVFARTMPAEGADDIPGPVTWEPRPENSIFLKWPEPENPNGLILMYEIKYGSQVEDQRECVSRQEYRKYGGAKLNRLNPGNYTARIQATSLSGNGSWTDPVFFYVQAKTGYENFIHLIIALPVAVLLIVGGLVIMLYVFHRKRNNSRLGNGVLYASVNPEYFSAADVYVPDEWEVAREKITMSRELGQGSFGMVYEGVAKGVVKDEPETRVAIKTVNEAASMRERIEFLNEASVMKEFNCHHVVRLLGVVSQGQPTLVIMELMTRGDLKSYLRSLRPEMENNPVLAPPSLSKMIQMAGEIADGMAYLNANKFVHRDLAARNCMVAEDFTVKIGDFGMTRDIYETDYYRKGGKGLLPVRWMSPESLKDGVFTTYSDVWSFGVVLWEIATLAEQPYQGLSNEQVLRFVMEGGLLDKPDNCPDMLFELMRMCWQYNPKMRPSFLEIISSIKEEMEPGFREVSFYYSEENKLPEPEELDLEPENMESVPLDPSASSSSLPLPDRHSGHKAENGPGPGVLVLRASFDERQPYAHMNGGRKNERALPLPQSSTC

What was measured:
Assay in all cases: 33PanQinase protein kinase activity assay
Type in all cases: biochemical
Details in all cases: recombinant kinase, 1 µM ATP
SRC = SRC (Homo sapiens, UniProt P12931)
AKT1 = AKT1 (Homo sapiens, UniProt P31749)
Aurora-A = target: T1, Aurora-A (Homo sapiens, UniProt O14965)
T1 sequence (O14965 1-403): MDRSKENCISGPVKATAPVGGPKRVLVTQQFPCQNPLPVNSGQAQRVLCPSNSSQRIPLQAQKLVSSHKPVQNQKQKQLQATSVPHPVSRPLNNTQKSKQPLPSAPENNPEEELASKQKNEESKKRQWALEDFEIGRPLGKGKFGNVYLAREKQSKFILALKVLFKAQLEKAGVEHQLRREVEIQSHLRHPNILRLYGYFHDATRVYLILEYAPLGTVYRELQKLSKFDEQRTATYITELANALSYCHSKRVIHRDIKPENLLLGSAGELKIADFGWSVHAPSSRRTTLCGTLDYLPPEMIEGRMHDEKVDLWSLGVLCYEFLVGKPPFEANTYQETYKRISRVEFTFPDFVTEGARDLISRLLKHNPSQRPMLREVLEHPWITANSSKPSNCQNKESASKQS

TIE2 = TIE2 (Homo sapiens, UniProt Q02763)
ARK5 = target: T2, ARK5 (Homo sapiens, UniProt O60285)
T2 sequence (O60285 1-661): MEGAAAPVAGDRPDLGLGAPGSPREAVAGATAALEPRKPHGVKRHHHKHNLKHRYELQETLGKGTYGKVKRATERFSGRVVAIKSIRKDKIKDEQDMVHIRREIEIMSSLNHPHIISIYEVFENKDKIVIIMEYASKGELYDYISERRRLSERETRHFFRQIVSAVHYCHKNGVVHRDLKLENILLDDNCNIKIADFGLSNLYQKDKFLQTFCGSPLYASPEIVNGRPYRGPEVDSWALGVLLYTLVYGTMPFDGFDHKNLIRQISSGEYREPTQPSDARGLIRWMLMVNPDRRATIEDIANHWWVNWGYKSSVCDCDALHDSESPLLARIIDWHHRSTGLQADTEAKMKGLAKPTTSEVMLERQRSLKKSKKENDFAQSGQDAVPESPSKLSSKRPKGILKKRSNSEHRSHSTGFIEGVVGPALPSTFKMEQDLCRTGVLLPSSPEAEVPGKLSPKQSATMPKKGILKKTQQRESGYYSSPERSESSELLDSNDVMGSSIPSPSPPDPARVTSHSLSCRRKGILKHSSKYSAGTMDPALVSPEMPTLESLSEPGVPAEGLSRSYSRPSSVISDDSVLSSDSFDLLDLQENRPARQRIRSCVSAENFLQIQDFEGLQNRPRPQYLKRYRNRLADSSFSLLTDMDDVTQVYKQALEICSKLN

IGF1R = IGF1R (Homo sapiens, UniProt P08069)
EPHB4 = target: T3, EPHB4 (Homo sapiens, UniProt P54760)
T3 sequence (P54760 16-987): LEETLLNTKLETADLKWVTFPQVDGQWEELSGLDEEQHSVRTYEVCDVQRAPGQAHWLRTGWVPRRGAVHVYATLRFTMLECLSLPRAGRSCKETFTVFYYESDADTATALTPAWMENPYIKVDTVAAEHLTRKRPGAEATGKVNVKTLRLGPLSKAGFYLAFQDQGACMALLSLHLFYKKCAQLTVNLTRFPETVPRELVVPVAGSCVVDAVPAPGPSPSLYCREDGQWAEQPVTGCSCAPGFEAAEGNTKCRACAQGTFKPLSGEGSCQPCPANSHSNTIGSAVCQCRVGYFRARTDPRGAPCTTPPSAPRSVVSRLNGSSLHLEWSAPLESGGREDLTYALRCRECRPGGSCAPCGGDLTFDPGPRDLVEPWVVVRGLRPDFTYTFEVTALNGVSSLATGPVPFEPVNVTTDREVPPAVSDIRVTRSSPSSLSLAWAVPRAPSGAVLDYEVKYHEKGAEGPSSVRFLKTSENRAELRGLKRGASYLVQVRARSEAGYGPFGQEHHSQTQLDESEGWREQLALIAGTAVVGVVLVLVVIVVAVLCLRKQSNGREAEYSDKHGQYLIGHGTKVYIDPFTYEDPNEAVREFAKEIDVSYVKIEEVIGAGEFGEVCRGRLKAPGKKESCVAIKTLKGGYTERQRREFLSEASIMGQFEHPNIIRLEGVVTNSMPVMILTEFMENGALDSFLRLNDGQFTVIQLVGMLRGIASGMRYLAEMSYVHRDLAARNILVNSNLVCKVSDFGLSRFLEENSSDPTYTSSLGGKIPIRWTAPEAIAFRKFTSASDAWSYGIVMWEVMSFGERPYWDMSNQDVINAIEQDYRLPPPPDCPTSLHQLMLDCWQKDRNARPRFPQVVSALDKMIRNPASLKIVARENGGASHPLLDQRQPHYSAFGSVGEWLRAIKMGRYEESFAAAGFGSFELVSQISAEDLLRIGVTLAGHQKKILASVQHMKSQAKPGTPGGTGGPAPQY

“3-(indole-3-yl)-4-(3,4,5-trimethoxyphenyl)-1H-pyrrole-2,5-dione [Compound 1, reference compound]” was tested, and the IC50 (SRC) was 14 µM, the IC50 (AKT1) was over 100 µM and the IC50 (Aurora-A) was 46 µM. The IC50 (TIE2) was 5 µM, the IC50 (ARK5) was 16 µM and the IC50 (IGF1R) was 22 µM. It also gave an IC50 (EPHB4) of 53 µM.
